Assay results as given in patent US7863416B2, “Nociceptin-based analgesics” (Synvax, Inc., priority 2001, dated 2011).

Protein sequences, listed by entry. Tags and fused reporters are not part of them. Lines headed by an entry give the natural chain unless they say otherwise; changes in a name come on top.
UniProt P41146: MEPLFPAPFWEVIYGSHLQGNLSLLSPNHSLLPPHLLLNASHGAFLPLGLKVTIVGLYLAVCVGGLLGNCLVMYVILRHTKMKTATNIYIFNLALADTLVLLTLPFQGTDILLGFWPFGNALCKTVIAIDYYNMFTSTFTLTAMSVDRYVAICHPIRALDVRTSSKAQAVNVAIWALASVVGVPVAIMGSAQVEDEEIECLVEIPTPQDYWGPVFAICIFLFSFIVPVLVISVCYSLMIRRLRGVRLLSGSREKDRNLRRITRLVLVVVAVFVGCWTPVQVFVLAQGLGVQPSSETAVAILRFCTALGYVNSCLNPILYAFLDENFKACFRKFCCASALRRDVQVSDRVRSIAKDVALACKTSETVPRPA

Molecular target: T1, human ORL1 (Homo sapiens, UniProt P41146)
T1 construct: expressed in transfected cells; host or cells: CHO cells (G418-selected)
Test: [3H]nociceptin binding to membranes of CHO cells transfected with human ORL1
Details: Table 5; Ki=IC50/(1+[L]/Kd), at least two experiments in triplicate; read-out: Ki ± SEM

Molecule | Ki [µM]
CC(=O)N[C@@H](CCCNC(=N)N)C(=O)N[C@@H](Cc1ccc(S(=O)(=O)O)cc1)C(=O)N[C@@H](Cc1ccc(O)cc1)C(=O)N[C@@H](CCCNC(=N)N)C(=O)N[C@@H](Cc1c[nH]c2ccccc12)C(=O)N[C@@H](CCCNC(=N)N)C(N)=O [VII-29-B, Ac-Arg-Phe(4-SO3H)-Tyr-Arg-Trp-Arg-NH2] (Ac-R[Phe(4-SO3H)]YRWR-NH2) | > 10
Ac-Arg-Phe(4-COOH)-Phe(COOH)-Arg-Trp-Arg-NH2 (Ac-R[Phe(4-COOH)][Phe(COOH)]RWR-NH2) [VII-21-C] | > 10

Square brackets hold non-standard residues; d marks the D form. Peptide text beside a SMILES is read from it. Phe(4-SO3H) = N[C@@H](Cc1ccc(S(=O)(=O)O)cc1)C(=O)O; Phe(4-COOH) = N[C@@H](Cc1ccc(C(=O)O)cc1)C(=O)O
